Laboratory results from patent US7879844B2, “Heterocyclic janus kinase 3 inhibitors” (Astellas Pharma Inc., priority 2005, dated 2011).

Chains of the proteins cited; added tags and fusions are not shown. Residues count along the entry.
UniProt P52333, 796-1124: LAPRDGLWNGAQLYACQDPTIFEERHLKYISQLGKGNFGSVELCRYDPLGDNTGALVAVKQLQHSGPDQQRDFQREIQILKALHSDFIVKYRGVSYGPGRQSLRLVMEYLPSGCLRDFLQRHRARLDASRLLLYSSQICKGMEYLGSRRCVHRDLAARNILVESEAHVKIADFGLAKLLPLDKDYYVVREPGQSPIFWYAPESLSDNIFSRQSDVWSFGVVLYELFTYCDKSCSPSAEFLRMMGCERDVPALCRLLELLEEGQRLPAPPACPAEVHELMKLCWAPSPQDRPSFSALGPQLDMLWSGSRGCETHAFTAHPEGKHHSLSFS

Target: T1, human JAK3 kinase domain (Homo sapiens, UniProt P52333)
T1 construct: attached to the N-terminal of the 796-1124 (C-terminal) fragment of the human JAK3 protein; His-tag (N); purchased Carna Biosciences, Inc. (Kobe, Japan); host or cells: baculovirus expression system
Assay: JAK3 inhibition test
Assay type: biochemical
Details: purified human JAK3 kinase domain; Biotin-Lyn-Substrate-2, 20 μM ATP in substrate solution; absorbance at 450 nm; read-out: IC50 (JAK3 inhibitory activity)
Experimental: The JAK3 inhibition test was performed as described below according to the method of Okimoto et al.
Purified human JAK3 kinase domain was purchased from Carna Biosciences, Inc. (Kobe, Japan). This is obtained as described below. His-tag (41 kDa) was attached to the N-terminal of the 796-1124 (C-terminal) fragment of the human JAK3 protein (accession number #NM_000215), expressed using baculovirus expression system, and then purified using Ni-NTA affinity column chromatography.
As substrates, Biotin-Lyn-Substrate-2 (Biotin-XEQED EPEGF YFEWL EPE, X=∈-Acp (PEPTIDE INSTITUTE, INC., Osaka, Japan) and ATP were used. As an assay buffer, 15 mM Tris-HCl pH 7.5 containing 0.01% Tween 20 and 2 mM DTT was used. Normally, 20 μL of a substrate solution (an assay buffer containing 627 nM Biotin-Lyn-Substrate-2, 20 μM ATP, and 25 mM MgCl2), an assay buffer containing 10 μL of a substance to be tested, and 20 μL of an enzyme solution were added to a microplate, and stirred sufficiently.
After incubation at ambient temperature for one hour, the plate was washed with a cleaning buffer (50 mM Tris-HCl pH 7.5, 150 mM NaCl, 0.02% Tween 20), and a blocking buffer (a cleaning buffer containing 0.1% bovine serum albumin) was added to the plate. […] Enzyme activity was measured as absorbance at 450 nm. The efficacy of the test compound as a JAK3 inhibitor was expressed as an IC50 value.

- IC50: 1.1 nM
Structure (SMILES): NC(=O)c1cnc2[nH]ccc2c1N[C@@H]1[C@@H]2CC3C[C@H]1C[C@@](O)(C3)C2 [Example 121]
